# Antibody variant affinities, Ab-14 light chain, assay 1

Source: Engelhart et al. 2022 (doi:10.1038/s41597-022-01779-4), MIT Lincoln Laboratory and A-Alpha Bio; data file from the FLAb repository.

Binding partner: SARS-CoV-2 spike HR2 peptide, sequence PDVDLGDISGINAS.

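The parent was found by panning a naive human phage display library on the peptide. Library AAYL50 holds single substitutions and randomly drawn double and triple substitutions in the CDRs. The scFvs were displayed on barcoded MATa yeast, the peptide on MATalpha yeast. After mating in shaken culture at 30 °C for 16 h, diploids were selected and their barcode pairs sequenced. Scores were corrected for input abundance and mapped to Kd with protein pairs of known affinity run in the same pool. There are three technical replicates.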

Each scFv is VH, a 15-residue (Gly4Ser)3 linker, VL, as in the parent Ab-14, and differs from it in the CDRs of the light chain only.
VH: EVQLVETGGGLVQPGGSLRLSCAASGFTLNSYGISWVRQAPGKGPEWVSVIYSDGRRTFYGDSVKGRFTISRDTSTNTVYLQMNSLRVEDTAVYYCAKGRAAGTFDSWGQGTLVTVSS
VL: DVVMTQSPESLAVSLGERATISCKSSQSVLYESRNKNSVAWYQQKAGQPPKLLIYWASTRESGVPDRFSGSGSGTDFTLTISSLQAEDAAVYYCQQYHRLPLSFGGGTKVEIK

The whole VL of each variant is written out.
Kd is apparent (estimated from mating counts) and averaged on the log scale over replicates with a signal. Smaller is tighter.
"no signal" marks a missing value. The strain was present, yet no cells mated with the target were sequenced in any replicate, which points to weak or no binding.
For reference, the parent read 4.4 nM as the reference entry and 48 nM as a member of this library.

VL | apparent Kd | detected
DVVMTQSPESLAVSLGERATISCKSSQSVLYESRNKNSPAWYQQKAGQPPKLLIYWASTRESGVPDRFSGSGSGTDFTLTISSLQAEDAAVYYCQQYSRLPLSFGGGTKVEIK | 15 µM | 1/3
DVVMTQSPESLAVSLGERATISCWSSQSVLYEFRNKNSVAWYQQKAGQPPKLLIYWAVTRESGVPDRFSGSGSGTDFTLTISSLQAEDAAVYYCQQYHRLPLSFGGGTKVEIK | 49 µM | 1/3
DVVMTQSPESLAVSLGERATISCKSSQSVNYSSRNKNSVAWYQQKAGQPPKLLIYWASTRESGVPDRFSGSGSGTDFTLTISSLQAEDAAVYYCSQYHRLPLSFGGGTKVEIK | 900 nM | 3/3
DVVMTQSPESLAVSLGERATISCKSSQSVLYESINKNSVAWYQQKAGQPPKLLIYWAQTRESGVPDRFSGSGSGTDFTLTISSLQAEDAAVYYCQQYHRGPLSFGGGTKVEIK | no signal | 0/3
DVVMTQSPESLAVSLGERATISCKSSQSVFYESRNKNSVAWYQQKAGQPPKLLIYVASHRESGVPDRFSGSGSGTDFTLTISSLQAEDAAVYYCQQYHRLPLSFGGGTKVEIK | 9.0 µM | 3/3
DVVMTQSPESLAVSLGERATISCKSGQDVLYISRNKNSVAWYQQKAGQPPKLLIYWASTRESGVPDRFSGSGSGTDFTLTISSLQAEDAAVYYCQQYHRLPLSFGGGTKVEIK | 150 nM | 1/3
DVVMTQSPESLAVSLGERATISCKSSNSVLYESRNENSVAWYQQKAGQPPKLLIYWWSTRESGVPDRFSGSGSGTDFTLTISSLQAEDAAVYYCQQYHRLPLSFGGGTKVEIK | no signal | 0/3
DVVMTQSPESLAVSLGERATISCKSSLSVLYESENKNSVAWYQQKAGQPPKLLIYWASTREHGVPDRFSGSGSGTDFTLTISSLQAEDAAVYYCQQYHRLPLSFGGGTKVEIK | 1.5 nM | 3/3

The remaining entries, values ahead:

apparent Kd | detected | VL
no signal | 0/3 | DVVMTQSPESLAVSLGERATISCKSSQSVLYESRNKNSVFWYQQKAGQPPKLLIYWASTREWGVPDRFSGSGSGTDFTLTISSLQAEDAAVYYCQQYHRLPLFFGGGTKVEIK
1.3 µM | 1/3 | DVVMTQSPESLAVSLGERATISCKSSQSKLYESRNFNSVVWYQQKAGQPPKLLIYWASTRESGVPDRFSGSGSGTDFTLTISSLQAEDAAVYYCQQYHRLPLSFGGGTKVEIK
1.2 µM | 1/3 | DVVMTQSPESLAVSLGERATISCKSSQSVLYESRNFNTCAWYQQKAGQPPKLLIYWASTRESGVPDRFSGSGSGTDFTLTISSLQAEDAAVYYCQQYHRLPLSFGGGTKVEIK
230 nM | 3/3 | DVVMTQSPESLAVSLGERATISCYSSQSVLHESRNKNSVAWYQQKAGQPPKLLIYWASTRMSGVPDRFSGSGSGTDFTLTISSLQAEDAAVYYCQQYHRLPLSFGGGTKVEIK
3.0 nM | 3/3 | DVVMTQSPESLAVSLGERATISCHSSQSVLYESRNKNSVAWYQQKAGQPPKLLIYWATERESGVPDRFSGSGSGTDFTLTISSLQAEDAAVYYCQQYHRLPLSFGGGTKVEIK
8.4 nM | 3/3 | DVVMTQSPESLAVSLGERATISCKISQSVLYESRNKNSVAWYQQKAGQPPKLLIYWASTRESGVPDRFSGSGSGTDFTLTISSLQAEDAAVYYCQQYHYLPLSFGGGTKVEIK
no signal | 0/3 | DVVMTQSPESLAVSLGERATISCKSSQSCLYESRNKNSVAWYQQKAGQPPKLLIYWASTMEYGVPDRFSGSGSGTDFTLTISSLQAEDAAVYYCQQYHRLPLSFGGGTKVEIK
80 nM | 3/3 | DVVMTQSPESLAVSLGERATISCKSSQSVLYESRNKNSVAWYQQKAGQPPKLLIYWASIRESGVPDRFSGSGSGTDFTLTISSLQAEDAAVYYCQQYCRLPLAFGGGTKVEIK
no signal | 0/3 | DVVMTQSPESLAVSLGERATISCKSRQSVLYESRNKGSVEWYQQKAGQPPKLLIYWASTRESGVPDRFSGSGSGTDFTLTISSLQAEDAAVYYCQQYHRLPLSFGGGTKVEIK

Background: pairings of library AAYL50 with three empty control strains gave a value in 18% of cases (median 15 µM, 5th percentile 970 nM). Values in that range, when seen in few replicates, are hard to tell from nonspecific mating.